Sequences of proteins named here, by UniProt entry; tags and fusion partners are left off. Residues count along the entry.
UniProt P43220, 24-463: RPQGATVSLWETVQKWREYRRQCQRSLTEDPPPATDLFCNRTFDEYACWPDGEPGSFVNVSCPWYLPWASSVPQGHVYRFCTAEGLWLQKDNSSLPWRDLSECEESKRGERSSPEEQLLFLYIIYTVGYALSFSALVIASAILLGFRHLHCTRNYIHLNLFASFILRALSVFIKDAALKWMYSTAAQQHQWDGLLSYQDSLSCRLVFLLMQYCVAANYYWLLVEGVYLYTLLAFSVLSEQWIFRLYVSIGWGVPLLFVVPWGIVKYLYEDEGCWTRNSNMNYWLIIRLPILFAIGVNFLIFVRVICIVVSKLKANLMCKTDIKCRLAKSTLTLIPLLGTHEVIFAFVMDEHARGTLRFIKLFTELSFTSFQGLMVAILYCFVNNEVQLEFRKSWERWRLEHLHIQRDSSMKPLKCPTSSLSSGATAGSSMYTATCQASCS

In patent publication US12630600B2 (MEDIMMUNE LIMITED, priority 2022, dated 2026):

Biological target: T1, human GLP-1 receptor (hGLP-1R) (Homo sapiens, UniProt P43220)
T1 construct: expressed in transfected cells; host or cells: CHO
Assay: cAMP production (HTRF) in CHO cells expressing human GLP-1 receptor
Format: cell-based
Details: Table 8; % GLP-1R activity relative to GLP-1 / % GlucR activity relative to glucagon
Description: Cells were re-suspended in assay buffer at a batch-dependent optimized concentration (typically hGLP-1R cells at 1×10^5 cells/mL, hGCGR cells at 2×10^5 cells/mL).
Cells were added to the assay plate using a multidrop dispenser and incubated at room temperature for 30 minutes before measuring the cAMP level using a cAMP dynamic 2 homogeneous time resolved Fluorescence (HTRF) kit (Cisbio Bioassays #62AM4PEJ) following the two-step protocol as per manufacturer's recommendations. In brief, anti-cAMP cryptate (donor fluorophore) and cAMP-d2 (acceptor fluorophore) were made up separately by diluting each 1 in 20 in conjugate and lysis buffer provided in the kit. Anti-cAMP cryptate was added to all wells of the assay plate, followed by cAMP-d2 added to all wells except non-specific binding (NSB) wells (to which conjugate and lysis buffer was added).
Data was transformed to % Delta F as described in the manufacturer's guidelines and analyzed by 4-parameter logistic fit to determine EC50 values.

CC[C@H](C)[C@H](NC(=O)[C@H](Cc1c[nH]c2ccccc12)NC(=O)[C@H](CCCCNC(=O)COCCOCCNC(=O)COCCOCCNC(=O)CC[C@H](NC(=O)CCCCCCCCCCCCCCCCC(=O)O)C(=O)O)NC(=O)[C@@H](NC(=O)[C@H](Cc1ccccc1)NC(=O)[C@H](CC(=O)O)NC(=O)[C@H](CCC(N)=O)NC(=O)[C@H](C)NC(=O)[C@H](C)NC(=O)[C@H](CCC(N)=O)NC(=O)[C@H](CO)NC(=O)[C@H](CC(=O)O)NC(=O)[C@H](CC(C)C)NC(=O)[C@](C)(Cc1ccccc1)NC(=O)[C@H](CCCCN)NC(=O)[C@H](CO)NC(=O)[C@@H](NC(=O)[C@H](CC(=O)O)NC(=O)[C@H](CO)NC(=O)[C@@H](NC(=O)[C@H](Cc1ccccc1)NC(=O)[C@@H](NC(=O)CNC(=O)[C@H](Cc1c[nH]cn1)NC(=O)C(C)(C)NC(=O)[C@@H](N)Cc1c[nH]cn1)[C@@H](C)O)[C@@H](C)O)C(C)C)C(C)C)C(=O)N[C@@H](C)C(=O)N[C@@H](CC(N)=O)C(=O)N[C@H](C(N)=O)[C@@H](C)O [Peptide 345]
% Relative Potency Ratio: 0.1
